# Yeast mating assay 1: variants of the scFv Ab-14

Target: peptide PDVDLGDISGINAS, taken from heptad repeat 2 (HR2) of SARS-CoV-2 spike.

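Phage display of a naive human antibody library on the peptide gave the parent. In library AAYL49, one, two or three CDR residues were substituted; doubles and triples were drawn at random. In AlphaSeq, yeast of one mating type display the scFv and yeast of the other type display the target. The frequency of each diploid, read from paired DNA barcodes, reflects how well the two displayed proteins bind. Each replicate has its own calibration line, from reference interactions of the BCL2 family. Each pool was mated in three replicate cultures.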

Parent: Ab-14, a human scFv built as VH, the linker GGGGSGGGGSGGGGS, VL. Only the CDRs of the heavy chain vary.
VH: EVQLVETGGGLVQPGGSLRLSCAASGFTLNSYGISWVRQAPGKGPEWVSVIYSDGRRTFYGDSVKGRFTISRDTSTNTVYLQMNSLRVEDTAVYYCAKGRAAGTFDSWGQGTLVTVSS
VL: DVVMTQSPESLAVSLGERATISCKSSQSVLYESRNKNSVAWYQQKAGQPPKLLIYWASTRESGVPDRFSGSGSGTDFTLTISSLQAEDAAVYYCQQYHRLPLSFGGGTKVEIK

Substitutions are numbered in sequence along the VH above, starting at 1 (not Kabat).
Numbers give log10(Kd / nM), so 0 is 1 nM and 3 is 1 µM. Smaller is tighter.
Averages over replicates are reported, and they cover detected replicates only.
Where no diploid with the target was found in that replicate, the entry reads "ND": below detection, most likely a poor binder, though not proof of it.
Empty control strains, which show no peptide, gave a signal in 15% of pairings with library AAYL49; the median was 4.06 and 95% of these signals were weaker than 2.83. No background was subtracted. The control count says in how many pairings with the empty strains this scFv gave a signal, with their mean in brackets.

| changes | log10 Kd (nM) by replicate | mean log10 Kd (nM) | empty controls |
|---|---|---|---|
| L29I G55I G61V | ND / ND / ND | ND | 0/9 |
| S31Y S53K V64F | ND / ND / ND | ND | 0/9 |
| Y32A G33P F105H | 3.95 / 2.96 / 5.55 | 4.15 | 2/9 (4.06) |
| Y60S A102C G103K | 4.93 / 3.01 / ND | 3.97 | 0/9 |
| S63C R100E | ND / ND / ND | ND | 0/9 |
| R57Q T104M F105S | 3.35 / 3.30 / ND | 3.32 | 3/9 (3.97) |
| I51Y G99C | ND / ND / ND | ND | 0/9 |
| S31R G55R V64R | ND / ND / ND | ND | 0/9 |
| D54P G99H A102Q | ND / ND / ND | ND | 0/9 |
| I51L D54L G55I | ND / 4.06 / ND | 4.06 | 2/9 (4.44) |
| S31Q G61S T104F | -0.42 / 0.03 / -0.02 | -0.14 | 8/9 (4.90) |
| Y52C Y60P R100I | ND / ND / ND | ND | 1/9 (3.98) |
| L29N S63M K65M | ND / ND / ND | ND | 2/9 (4.21) |
| R56P K65Y R100V | ND / 2.98 / ND | 2.98 | 3/9 (3.49) |
| G26M I34G D54I | ND / ND / ND | ND | 0/9 |
| G33C S35W A101Y | ND / ND / 4.56 | 4.56 | 1/9 (3.57) |
| G26V V50D D54M | ND / ND / ND | ND | 0/9 |
| V50P F105L | ND / ND / ND | ND | 1/9 (4.52) |
| I34P G99C G103V | ND / ND / ND | ND | 0/9 |
| S35K T58L G99R | ND / ND / ND | ND | 0/9 |
| G26Y T28V Y52C | ND / ND / ND | ND | 0/9 |
| A101N F105G S107V | 1.24 / 1.10 / 0.94 | 1.09 | 3/9 (3.70) |
| F27Q V50T G55Y | ND / 3.53 / ND | 3.53 | 0/9 |
| G26T N30R Y52S | 2.92 / 2.72 / 3.67 | 3.10 | 3/9 (4.06) |
| I34F R56A Y60T | ND / ND / ND | ND | 1/9 (3.43) |
| S53G F59L | 4.24 / 5.46 / 6.43 | 5.38 | 4/9 (4.34) |
| G26N L29P S31L | 3.54 / ND / ND | 3.54 | 2/9 (3.72) |
| G26H S31E I51M | 2.06 / 1.97 / 2.18 | 2.07 | 6/9 (3.91) |
| S35H R57Y S63Q | ND / ND / ND | ND | 0/9 |
| G33Y F59T S63A | 3.46 / ND / 4.08 | 3.77 | 2/9 (4.63) |
| T58P A102R F105P | ND / ND / ND | ND | 2/9 (3.08) |
| S31N G99H S107D | ND / 2.19 / 2.05 | 2.12 | 0/9 |
| I34V Y52Q G61W | 3.18 / ND / ND | 3.18 | 0/9 |
| F27Q Y52C A102C | ND / 3.42 / 4.19 | 3.81 | 1/9 (4.13) |
| L29N G55N R57W | ND / ND / ND | ND | 0/9 |
| S53P D62N T104Q | ND / ND / ND | ND | 0/9 |
| V50G R100V D106R | ND / 4.56 / ND | 4.56 | 5/9 (3.69) |
| S63L G99T T104W | 1.96 / 1.89 / 2.06 | 1.97 | 3/9 (4.42) |
| N30T I51L K65G | 3.42 / ND / ND | 3.42 | 1/9 (2.93) |
| T58P A101K F105H | ND / ND / ND | ND | 3/9 (4.00) |
| G26C F59D Y60L | ND / ND / ND | ND | 0/9 |

Top 6 of the variants detected in all replicates, tightest first:

changes	log10 Kd (nM) by replicate	mean log10 Kd (nM)	empty controls
S31Q G61S T104F	-0.42 / 0.03 / -0.02	-0.14	8/9 (4.90)
A101N F105G S107V	1.24 / 1.10 / 0.94	1.09	3/9 (3.70)
S63L G99T T104W	1.96 / 1.89 / 2.06	1.97	3/9 (4.42)
G26H S31E I51M	2.06 / 1.97 / 2.18	2.07	6/9 (3.91)
G26T N30R Y52S	2.92 / 2.72 / 3.67	3.10	3/9 (4.06)
Y32A G33P F105H	3.95 / 2.96 / 5.55	4.15	2/9 (4.06)

From the AlphaSeq antibody data of Engelhart et al. 2022 (doi:10.1038/s41597-022-01779-4), copy in the FLAb collection.